# Earlier results in patent US20170240926A1, “METHODS FOR PRENYLATION OF PEPTIDES AND THEIR USE IN OVER-PRODUCTION OF FARNESENE AND GERANYLGERANYL TERPENES” (University of North Texas, priority 2016, published 2017).
# The chains behind the UniProt entries cited, without tags or fusion partners.
# UniProt Q02293, whole entry: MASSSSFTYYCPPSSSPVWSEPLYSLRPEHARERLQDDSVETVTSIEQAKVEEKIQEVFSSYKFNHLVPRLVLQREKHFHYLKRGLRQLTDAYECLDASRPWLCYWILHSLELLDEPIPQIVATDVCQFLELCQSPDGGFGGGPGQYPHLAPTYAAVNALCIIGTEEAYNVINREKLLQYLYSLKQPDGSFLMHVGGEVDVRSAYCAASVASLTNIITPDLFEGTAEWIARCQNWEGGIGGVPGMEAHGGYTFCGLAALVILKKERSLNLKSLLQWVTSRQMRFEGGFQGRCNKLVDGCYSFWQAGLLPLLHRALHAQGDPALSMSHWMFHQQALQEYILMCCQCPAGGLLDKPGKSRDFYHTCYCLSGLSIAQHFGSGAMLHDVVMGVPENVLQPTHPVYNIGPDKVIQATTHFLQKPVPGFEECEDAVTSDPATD
# Columns and labels:
# FTase [1] = molecular target: T1, FTase (Rattus norvegicus, UniProt Q02293+Q04631); details: 10 μM FPP, 0.4-10 μM dansylated peptide, 25-300 nM FTase, 50 mM HEPPSO pH 7.8, 25° C.
# FTase [2] = molecular target: T1, FTase; details: dansylated peptide, 50 mM HEPPSO pH 7.8, 25° C.
Structure (SMILES),kfarn (FTase [1]) [s⁻¹],Kd (FTase [2]) [nM]
CC[C@H](C)[C@H](NC(=O)[C@H](CC(N)=O)NC(=O)[C@H](CS)NC(=O)[C@H](CCCCN)NC(=O)[C@@H](NS(=O)(=O)c1cccc2c(N(C)C)cccc12)[C@@H](C)O)C(=O)N[C@@H](CCSC)C(=O)O,3.5 ± 0.3,5
C[C@@H](O)[C@H](NC(=O)[C@H](CS)NC(=O)[C@H](CCCCN)NC(=O)[C@@H](NS(=O)(=O)c1cccc2c(N(C)C)cccc12)[C@@H](C)O)C(=O)N[C@@H](CCCCN)C(=O)N[C@@H](Cc1ccccc1)C(=O)O,0.24 ± 0.02,6
CC(C)[C@H](NC(=O)[C@H](CS)NC(=O)[C@H](CCCCN)NC(=O)[C@@H](NS(=O)(=O)c1cccc2c(N(C)C)cccc12)[C@@H](C)O)C(=O)N[C@H](C(=O)N[C@H](C(=O)O)[C@@H](C)O)C(C)C,0.33 ± 0.03,7
CC[C@H](C)[C@H](NC(=O)[C@H](CCCCN)NC(=O)[C@H](CS)NC(=O)[C@H](CCCCN)NC(=O)[C@@H](NS(=O)(=O)c1cccc2c(N(C)C)cccc12)[C@@H](C)O)C(=O)N[C@@H](Cc1ccccc1)C(=O)O,0.74 ± 0.07,
CC[C@H](C)[C@H](NC(=O)CNC(=O)[C@H](CS)NC(=O)[C@H](CCCCN)NC(=O)[C@@H](NS(=O)(=O)c1cccc2c(N(C)C)cccc12)[C@@H](C)O)C(=O)N[C@@H](CCSC)C(=O)O,4.0 ± 0.4,3.6
CC[C@H](C)[C@H](NC(=O)[C@@H](NC(=O)[C@@H](NC(=O)[C@H](CS)NC(=O)[C@H](CCCCN)NC(=O)[C@@H](NS(=O)(=O)c1cccc2c(N(C)C)cccc12)[C@@H](C)O)[C@@H](C)O)[C@@H](C)CC)C(=O)O,0.25 ± 0.03,
CSCC[C@H](NC(=O)[C@@H](NC(=O)[C@H](Cc1ccc(O)cc1)NC(=O)[C@H](CS)NC(=O)[C@H](CCCCN)NC(=O)[C@@H](NS(=O)(=O)c1cccc2c(N(C)C)cccc12)[C@@H](C)O)C(C)C)C(=O)O,1.1 ± 0.1,12
CSCC[C@H](NC(=O)[C@H](Cc1ccccc1)NC(=O)[C@H](CO)NC(=O)[C@H](CS)NC(=O)[C@H](CCCCN)NC(=O)[C@@H](NS(=O)(=O)c1cccc2c(N(C)C)cccc12)[C@@H](C)O)C(=O)O,0.44 ± 0.04,10
CSCC[C@H](NC(=O)[C@@H](NC(=O)[C@H](CS)NC(=O)[C@H](CCCCN)NC(=O)[C@@H](NS(=O)(=O)c1cccc2c(N(C)C)cccc12)[C@@H](C)O)[C@@H](C)O)C(=O)N[C@@H](CO)C(=O)O,0.91 ± 0.09,6
CC[C@H](C)[C@H](NC(=O)[C@H](CCCCN)NC(=O)[C@H](CS)NC(=O)[C@H](CCCCN)NC(=O)[C@@H](NS(=O)(=O)c1cccc2c(N(C)C)cccc12)[C@@H](C)O)C(=O)N[C@@H](CO)C(=O)O,0.64 ± 0.06,4
C[C@@H](O)[C@H](NS(=O)(=O)c1cccc2c(N(C)C)cccc12)C(=O)N[C@@H](CCCCN)C(=O)N[C@@H](CS)C(=O)N[C@@H](Cc1ccc(O)cc1)C(=O)N1CCC[C@H]1C(=O)N[C@@H](CC(=O)O)C(=O)O,0.56 ± 0.05,
CC[C@H](C)[C@H](NC(=O)[C@H](CO)NC(=O)[C@H](CS)NC(=O)[C@H](CCCCN)NC(=O)[C@@H](NS(=O)(=O)c1cccc2c(N(C)C)cccc12)[C@@H](C)O)C(=O)N[C@@H](CCSC)C(=O)O,9.7 ± 0.9,6
CC[C@H](C)[C@H](NC(=O)[C@H](CO)NC(=O)[C@H](CS)NC(=O)[C@H](CCCCN)NC(=O)[C@@H](NS(=O)(=O)c1cccc2c(N(C)C)cccc12)[C@@H](C)O)C(=O)N[C@@H](CO)C(=O)O,3.8 ± 0.3,3.4
CC[C@H](C)[C@H](NC(=O)[C@H](CCCNC(=N)N)NC(=O)[C@H](CS)NC(=O)[C@H](CCCCN)NC(=O)[C@@H](NS(=O)(=O)c1cccc2c(N(C)C)cccc12)[C@@H](C)O)C(=O)N[C@@H](CO)C(=O)O,2.5 ± 0.5,12
CC[C@H](C)[C@H](NC(=O)[C@H](CS)NC(=O)[C@H](CCCCN)NC(=O)[C@@H](NS(=O)(=O)c1cccc2c(N(C)C)cccc12)[C@@H](C)O)C(=O)N[C@H](C(=O)N[C@@H](CCC(N)=O)C(=O)O)[C@@H](C)O,1.1 ± 0.1,3.6
CC(C)C[C@H](NC(=O)[C@H](CC(N)=O)NC(=O)[C@H](CS)NC(=O)[C@H](CCCCN)NC(=O)[C@@H](NS(=O)(=O)c1cccc2c(N(C)C)cccc12)[C@@H](C)O)C(=O)N[C@@H](CCC(N)=O)C(=O)O,1.6 ± 0.2,8

# The next lines start with the values.
kfarn (FTase [1]) [s⁻¹],Kd (FTase [2]) [nM],Structure (SMILES)
8.2 ± 0.8,6,CSCC[C@H](NC(=O)[C@@H](NC(=O)[C@H](CC(C)C)NC(=O)[C@H](CS)NC(=O)[C@H](CCCCN)NC(=O)[C@@H](NS(=O)(=O)c1cccc2c(N(C)C)cccc12)[C@@H](C)O)C(C)C)C(=O)O
0.74 ± 0.07,,CC[C@H](C)[C@H](NC(=O)[C@H](CC(C)C)NC(=O)[C@H](CS)NC(=O)[C@H](CCCCN)NC(=O)[C@@H](NS(=O)(=O)c1cccc2c(N(C)C)cccc12)[C@@H](C)O)C(=O)N[C@H](C(=O)O)[C@@H](C)O
4.7 ± 0.5,5,CC[C@H](C)[C@H](NC(=O)[C@H](CS)NC(=O)[C@H](CCCCN)NC(=O)[C@@H](NS(=O)(=O)c1cccc2c(N(C)C)cccc12)[C@@H](C)O)C(=O)N[C@H](C(=O)N[C@@H](C)C(=O)O)C(C)C
,300,CC[C@H](C)[C@H](NC(=O)[C@H](CS)NC(=O)[C@H](CS)NC(=O)[C@H](CCCCN)NC(=O)[C@@H](NS(=O)(=O)c1cccc2c(N(C)C)cccc12)[C@@H](C)O)C(=O)N[C@@H](CC(C)C)C(=O)O
0.059 ± 0.006,3.4,CC(C)C[C@H](NC(=O)[C@H](CO)NC(=O)[C@H](CS)NC(=O)[C@H](CCCCN)NC(=O)[C@@H](NS(=O)(=O)c1cccc2c(N(C)C)cccc12)[C@@H](C)O)C(=O)NCC(=O)O
0.35 ± 0.03,5,CC(C)C[C@H](NC(=O)[C@H](CS)NC(=O)[C@H](CCCCN)NC(=O)[C@@H](NS(=O)(=O)c1cccc2c(N(C)C)cccc12)[C@@H](C)O)C(=O)N[C@H](C(=O)N[C@@H](CO)C(=O)O)[C@@H](C)O
0.015 ± 0.002,,CC(C)C[C@H](NC(=O)[C@@H](NC(=O)[C@H](CS)NC(=O)[C@H](CCCCN)NC(=O)[C@@H](NS(=O)(=O)c1cccc2c(N(C)C)cccc12)[C@@H](C)O)[C@@H](C)O)C(=O)N[C@@H](C)C(=O)O
0.97 ± 0.09,,CC(C)[C@H](NC(=O)[C@H](CO)NC(=O)[C@H](CS)NC(=O)[C@H](CCCCN)NC(=O)[C@@H](NS(=O)(=O)c1cccc2c(N(C)C)cccc12)[C@@H](C)O)C(=O)N[C@@H](CO)C(=O)O
0.51 ± 0.05,,CC(C)C[C@H](NC(=O)[C@@H](NC(=O)[C@H](CS)NC(=O)[C@H](CCCCN)NC(=O)[C@@H](NS(=O)(=O)c1cccc2c(N(C)C)cccc12)[C@@H](C)O)C(C)C)C(=O)N[C@@H](C)C(=O)O
1.2 ± 0.1,7,CC(C)C[C@H](NC(=O)[C@@H](NC(=O)[C@H](CS)NC(=O)[C@H](CCCCN)NC(=O)[C@@H](NS(=O)(=O)c1cccc2c(N(C)C)cccc12)[C@@H](C)O)[C@@H](C)O)C(=O)N[C@@H](CCC(N)=O)C(=O)O
11 ± 1,,CC(C)[C@H](NC(=O)[C@H](C)NC(=O)[C@H](CS)NC(=O)[C@H](CCCCN)NC(=O)[C@@H](NS(=O)(=O)c1cccc2c(N(C)C)cccc12)[C@@H](C)O)C(=O)N[C@@H](CCC(N)=O)C(=O)O
4.7 ± 0.5,5,CC(C)C[C@H](NC(=O)[C@H](CO)NC(=O)[C@H](CS)NC(=O)[C@H](CCCCN)NC(=O)[C@@H](NS(=O)(=O)c1cccc2c(N(C)C)cccc12)[C@@H](C)O)C(=O)N[C@@H](CS)C(=O)O
4.9 ± 0.5,,CSCC[C@H](NC(=O)[C@H](CC(C)C)NC(=O)[C@H](CC(C)C)NC(=O)[C@H](CS)NC(=O)[C@H](CCCCN)NC(=O)[C@@H](NS(=O)(=O)c1cccc2c(N(C)C)cccc12)[C@@H](C)O)C(=O)O
7.0 ± 0.7,8,CSCC[C@H](NC(=O)[C@H](CC(C)C)NC(=O)[C@H](CO)NC(=O)[C@H](CS)NC(=O)[C@H](CCCCN)NC(=O)[C@@H](NS(=O)(=O)c1cccc2c(N(C)C)cccc12)[C@@H](C)O)C(=O)O
0.32 ± 0.03,,CC(C)C[C@H](NC(=O)[C@@H](NC(=O)[C@H](CS)NC(=O)[C@H](CCCCN)NC(=O)[C@@H](NS(=O)(=O)c1cccc2c(N(C)C)cccc12)[C@@H](C)O)C(C)C)C(=O)N[C@@H](Cc1c[nH]cn1)C(=O)O
